Source: patent US9566342B2, “Compounds for treatment of heart failure” (SOLVOTRIN INNOVATIONS LIMITED, priority 2010, dated 2017)
Only a part of the results on these compounds is given; other tests are left out.

Test system: MMP-9
Assay: PMA-stimulated CaCo2 cells, zymography of media, MMP-9
Type: cell-based
Conditions: equimolar to the Mannich base dinitrate, 450 uM nitro amine (FIG. 1)

O=[N+]([O-])OCCNCCO[N+](=O)[O-]
inhibition of MMP-9 relative to PMA positive control: over 50%
